Test results as given in publication PMC11822712, “Improving the Activity and Selectivity of a Scorpion-Derived Peptide, A3a, against Acinetobacter baumannii through Rational Design” (ACS Omega, 2025).
≈ marks a conversion by molar mass, not a printed value.

Experiments:
[1] = system: K. pneumoniae ATCC BAA-1705; type: cell-based, Klebsiella pneumoniae; conditions: cation-adjusted MHB, OD600
HaCat cells = test: Cytotoxicity against mammalian cells, MTT assay; type: cell-based; conditions: 256 μg/mL, 24 h
Protocol: HaCat cells were purchased from ECACC and were cultured in Dulbecco’s modified Eagle’s medium (DMEM) supplemented with 10% heat-inactivated fetal calf serum (FCS) and 1% antibiotic–antimycotic (DMEM/FCS). To determine the initial cytotoxicity of all peptides, HaCat cells were plated at 5.56 × 10^4 cells/mL (90 μL) in a 96-well plate. After an overnight incubation at 5% CO2, 37 °C, and 95% humidity, for initial screening peptide at a final concentration of 256 μg/mL (10 μL) were added triplicate wells. […] The positive control was 0.1% Triton-X100. After 24 h, cell viability was determined with the 3-(4,5-dimethyl-2-thiazolyl)-2,5-diphenyl-2H-tetrazolium bromide (MTT) assay. A volume of 10 μL of a 1 mg/mL MTT was added to each well. After 3 h incubation, the medium was discarded, and the plate was rinsed and dried before the formazan crystals were dissolved by adding 25% DMSO in ethanol. The cell viability was determined by measuring the absorbance at OD595. The percentage cell viability was calculated relative to that of the untreated control. […] This was calculated from a sigmoidal curve of cell growth (%) over log10(peptide concentration).

E. coli ATCC 25922 = conditions: same test as μg/mL value; cation-adjusted MHB, 20 h, OD600
A. baumannii ATCC 19606 = conditions: same test as μg/mL value; cation-adjusted MHB, 20 h, OD600
E. cloacae ATCC 700323 = conditions: cation-adjusted MHB, OD600
P. aeruginosa ATCC 27853 = conditions: cation-adjusted MHB, OD600
[2] = system: S. aureus (MSSA) ATCC 25923; conditions: same test as μg/mL value; cation-adjusted MHB, 20 h, OD600
[3] = approx. 1 × 10^6 CFU/mL added 1:1, 20 h, MIC = lowest concentration with growth <0.1 above background, > = no activity at highest concentration tested

Structure (SMILES)	MIC (value in brackets) ([1]; same test as μg/mL value, 20 h) [µM]	cytotoxicity in initial screening (HaCat cells)	MIC (value in brackets) (E. coli ATCC 25922) [µM]	MIC (value in brackets) (A. baumannii ATCC 19606) [µM]	MIC (value in brackets) (E. cloacae ATCC 700323; same test as μg/mL value, 20 h) [µM]	MIC (value in brackets) (P. aeruginosa ATCC 27853; same test as μg/mL value, 20 h) [µM]	MIC (value in brackets) [2] [µM]	MIC [1, 3] [µg/mL]	MIC (E. cloacae ATCC 700323; [3]) [µg/mL]	MIC (P. aeruginosa ATCC 27853; [3]) [µg/mL]
CC[C@H](C)[C@H](NC(=O)[C@H](C)NC(=O)[C@H](CCCCN)NC(=O)[C@H](CCCNC(=N)N)NC(=O)[C@@H](NC(=O)[C@H](CC(C)C)NC(=O)[C@H](CO)NC(=O)[C@H](Cc1ccccc1)NC(=O)[C@H](CC(C)C)NC(=O)[C@@H](N)Cc1ccccc1)[C@@H](C)CC)C(=O)NCC(=O)NCC(=O)N[C@@H](CC(C)C)C(=O)N[C@@H](Cc1c[nH]c2ccccc12)C(=O)N[C@@H](CO)C(=O)N[C@@H](C)C(=O)N[C@@H](Cc1ccccc1)C(=O)N[C@@H](CCCCN)C(N)=O [A3a[I14W]]	62 (≈ 127 µg/mL)	cytotoxicity was observed	16 (≈ 32.9 µg/mL)	4 (≈ 8.21 µg/mL)	62 (≈ 127 µg/mL)	62 (≈ 127 µg/mL)	2 (≈ 4.11 µg/mL)			
CC[C@H](C)[C@H](NC(=O)[C@H](C)NC(=O)[C@H](CCCCN)NC(=O)[C@H](CCCCN)NC(=O)[C@@H](NC(=O)[C@H](CC(C)C)NC(=O)[C@H](CO)NC(=O)[C@H](Cc1ccccc1)NC(=O)[C@H](CC(C)C)NC(=O)[C@@H](N)Cc1ccccc1)[C@@H](C)CC)C(=O)NCC(=O)NCC(=O)N[C@@H](CC(C)C)C(=O)N[C@H](C(=O)N[C@@H](CO)C(=O)N[C@@H](C)C(=O)N[C@@H](Cc1ccccc1)C(=O)N[C@@H](CCCCN)C(N)=O)[C@@H](C)CC [A3a[R7K]]		cytotoxicity was observed	65 (≈ 127 µg/mL)	8 (≈ 15.6 µg/mL)			4 (≈ 7.81 µg/mL)	>128	>128	>128
CC[C@H](C)[C@H](NC(=O)[C@H](C)NC(=O)[C@H](CCCCN)NC(=O)[C@H](CCCNC(=N)N)NC(=O)[C@@H](NC(=O)[C@H](CC(C)C)NC(=O)[C@H](CO)NC(=O)[C@H](Cc1ccccc1)NC(=O)[C@H](CC(C)C)NC(=O)[C@@H](N)Cc1ccccc1)[C@@H](C)CC)C(=O)NCC(=O)NCC(=O)N[C@@H](CC(C)C)C(=O)N[C@H](C(=O)N[C@@H](CO)C(=O)N[C@@H](C)C(=O)N[C@@H](Cc1ccccc1)C(=O)N[C@@H](CCCCN)C(N)=O)[C@@H](C)CC [A3a]		cytotoxicity was observed		16 (≈ 31.7 µg/mL)			4 (≈ 7.92 µg/mL)			
